In PubChem BioAssay AID2766 (Sanford-Burnham Center for Chemical Genomics, 2010) one finds inhibition data, which are given here for one compound.

Protein sequences, listed by entry. Tags and fused reporters are not part of them. Lines headed by an entry give the natural chain unless they say otherwise; changes in a name come on top.
UniProt P35414: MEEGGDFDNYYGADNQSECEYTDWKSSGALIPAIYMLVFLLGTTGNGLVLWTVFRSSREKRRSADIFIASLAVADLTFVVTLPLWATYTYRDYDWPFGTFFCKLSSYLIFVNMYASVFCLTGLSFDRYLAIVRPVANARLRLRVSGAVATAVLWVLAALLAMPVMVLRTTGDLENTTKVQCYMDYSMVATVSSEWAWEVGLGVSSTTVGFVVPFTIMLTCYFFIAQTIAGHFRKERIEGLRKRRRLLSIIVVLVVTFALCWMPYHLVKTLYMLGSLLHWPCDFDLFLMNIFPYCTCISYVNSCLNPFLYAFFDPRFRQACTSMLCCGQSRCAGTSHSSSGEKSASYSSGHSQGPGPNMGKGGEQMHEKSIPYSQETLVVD

The experiment addresses Apelin receptor (Homo sapiens) (UniProt P35414). Put plainly: apelin receptor inhibitors, beta-arrestin readout – cell-based, luminescence, single concentration, uHTS hits, confirmation (AID 2766). Particulars: APJ beta-arrestin recruitment, antagonist mode, at 20 µM, hits give high values. On the technique in general: Activated receptors often draw arrestin, which recruitment assays turn into a signal.

The entries are a selection whose mix differs from that of the whole data set. Active and inactive are the calls of the source. No stated cut-off is given here; in the data, active means inhibition above about 50%; inactive means the rest.

As to `C[N+]1=C2C=CC=CC=C2SC12C([N+](=O)[O-])=CC([N+](=O)[O-])=C[C-]2[N+](=O)[O-]` (stereo unspecified), the inhibition (as a rule, the drop in the measured response relative to a control, in per cent) is active: 79.5%.
